Measured values as given in ChEMBL document CHEMBL5584342, “The Missing Link(er): A Roadmap to Macrocyclization in Drug Discovery” (J Med Chem, 2024).

Test: physchem
Settings: buffer, pH 7.4

logD: 3.8
Compound: CO[C@H]1/C=C/C[C@H](C)[C@@H](C)S(=O)(=O)NC(=O)c2ccc3c(c2)N(C[C@@H]2CC[C@H]21)C[C@@]1(CCCc2cc(Cl)ccc21)CO3 [TAPOTOCLAX]
